From patent EP0888303B1, “SYNTHETIC DERIVATIVES OF RAPAMYCIN AS MULTIMERIZING AGENTS FOR CHIMERIC PROTEINS WITH IMMUNOPHILIN-DERIVED DOMAINS” (ARIAD Pharmaceuticals, Inc, priority 1996, dated 1997)
Where two headings read alike, the source gives them in different places.

By UniProt entry, the sequences of proteins in these tests, tags left out. Where a name states a change or a piece, a line headed by the entry shows the natural chain unless it says otherwise. Residues count along the entry.
UniProt P62942, whole entry, looked up, stated change not applied: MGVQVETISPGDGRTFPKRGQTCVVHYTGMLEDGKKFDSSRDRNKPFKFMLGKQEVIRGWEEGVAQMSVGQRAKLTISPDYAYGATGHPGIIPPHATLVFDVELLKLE
UniProt P62942, 2-108 limits assumed: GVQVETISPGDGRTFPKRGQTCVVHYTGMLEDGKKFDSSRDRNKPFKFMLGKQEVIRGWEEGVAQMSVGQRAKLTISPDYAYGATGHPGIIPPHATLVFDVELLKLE
UniProt P62942, 2-108 F37L limits assumed: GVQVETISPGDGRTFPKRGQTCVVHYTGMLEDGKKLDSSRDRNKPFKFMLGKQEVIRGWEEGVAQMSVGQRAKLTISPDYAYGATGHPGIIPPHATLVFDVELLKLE

How the values were obtained:
F36L mutant FKBP = F36L mutant FKBP (Homo sapiens, UniProt P62942, F37L); experiment: Competitive Binding FP Assay
[1] = system: FKBP-containing fusion proteins (wt FKBP); experiment: Transcription Assay, activation of reporter gene transcription (wt; stable); assay type: cell-based, human; details: at 1000 nM; each value an individual experiment
mutant (F36V) FKBP = mutant (F36V) FKBP (UniProt P62942); experiment: Competitive Binding FP Assay; parameters: species or system human
[2] = system: FAS-FKBP fusion (wt FKBP) in HT1080 cells; experiment: Apoptosis Assay, Fas killing (wt, stable); assay type: cell-based, human; details: read-out: Fas killing (wt, stable) EC50; mean values
F36S mutant FKBP = F36S mutant FKBP (UniProt P62942); experiment: Competitive Binding FP Assay; details: read-out: F36S IC50; Synthetic Monomers table; normalized to value of FK506 run in the same experiment
wild-type human FKBP12 = wild-type human FKBP12 (Homo sapiens, UniProt P62942); experiment: Competitive Binding FP Assay
F36M mutant FKBP = F36M mutant FKBP (UniProt P62942); experiment: Competitive Binding FP Assay; parameters: species or system human; details: read-out: F36M IC50; Synthetic Monomers table; normalized to value of FK506 run in the same experiment
F36A mutant FKBP = F36A mutant FKBP (UniProt P62942); experiment: Competitive Binding FP Assay; parameters: species or system human; details: read-out: F36A IC50; Synthetic Monomers table; normalized to value of FK506 run in the same experiment
F36I mutant FKBP = F36I mutant FKBP (UniProt P62942); experiment: Competitive Binding FP Assay; parameters: species or system human; details: read-out: F36I IC50; Synthetic Monomers table; normalized to value of FK506 run in the same experiment
[3] = read-out: FKBPF36V binding affinity IC50, Synthetic Multimerizers table, monomer value in brackets, mean of duplicates, normalized to FK506 = […] (substituted phenyl/lower aliphatic series: to AP1903 values)
[4] = read-out: F36L IC50, Synthetic Monomers table, normalized to value of FK506 run in the same experiment
[5] = read-out: wild-type IC50, Synthetic Monomers table, normalized to value of FK506 run in the same experiment
[6] = read-out: F36V IC50, Synthetic Monomers table, normalized to value of FK506 run in the same experiment

Row | SMILES | IC50 (F36L mutant FKBP; read-out: FKBPF36L binding affinity IC50) | activation of transcription (wt; stable): % @ 1000 [1] | IC50 (mutant (F36V) FKBP; [3]) | EC50 [2] | IC50 (F36L mutant FKBP; [4]) | IC50 (F36S mutant FKBP) | IC50 (wild-type human FKBP12; [5]) | IC50 (F36M mutant FKBP) | IC50 (F36A mutant FKBP) | IC50 (F36I mutant FKBP) | IC50 (mutant (F36V) FKBP; [6]) | IC50 (wild-type human FKBP12; read-out: FKBPwt binding affinity IC50)
1 | COc1ccc(CC[C@@H](OC(=O)[C@@H]2CCCCN2C(=O)[C@H](c2cc(OC)c(OC)c(OC)c2)C(C)C)c2cccc(OCC(=O)NCCNC(=O)COc3cccc([C@@H](CCc4ccc(OC)c(OC)c4)OC(=O)[C@@H]4CCCCN4C(=O)[C@H](c4cc(OC)c(OC)c(OC)c4)C(C)C)c3)c2)cc1OC | 9.6 nM | 3% @ 1000 | 7 nM | 200 to 300 nM |  |  |  |  |  |  |  | 
2 | CCC(C)C(C(=O)N1CCCC[C@H]1C(=O)O[C@H](CCc1ccc(OC)c(OC)c1)c1cccc(OCC(=O)O)c1)c1ccccc1 (some centres unmarked) |  |  | 6.9 nM |  | 24 nM | 47 nM | 9580 nM | 16 nM | 21 nM | 8 nM | 13 nM | 
3 | CCC(CC)C(=O)N1CCCC[C@H]1C(=O)O[C@H](CCc1ccc(OC)c(OC)c1)c1cccc(OCC(=O)O)c1 |  |  | 76 nM |  | 287 nM |  | > 100000 nM | 770 nM | 240 nM | 289 nM | 102 nM | > 100000 nM
4 | COc1ccc(CC[C@@H](OC(=O)[C@@H]2CCCCN2C(=O)C2CCCCC2C)c2cccc(OCC(=O)O)c2)cc1OC (some centres unmarked) |  |  |  |  | 53 nM |  | > 10000 nM | 227 nM | 141 nM | 85 nM | 79 nM | 
5 | CCC(C(=O)N1CCCC[C@H]1C(=O)O[C@H](CCc1ccc(OC)c(OC)c1)c1cccc(OCC(=O)O)c1)N1CCOCC1 (some centres unmarked) |  |  |  |  | 3790 nM |  | > 100000 nM | 10000 nM | 8800 nM | 4490 nM | 2720 nM | 
6 | COc1ccc(CC[C@@H](OC(=O)[C@@H]2CCCCN2C(=O)NC2CCCCC2)c2cccc(OCC(=O)O)c2)cc1OC |  |  |  |  | 121 nM |  | 2650 nM | 166 nM | 486 nM | 150 nM | 169 nM | 
7 | CC[C@H](C(=O)N1CCC[C@H]1C(=O)O[C@H](CCc1ccc(OC)c(OC)c1)c1cccc(OCC(=O)O)c1)c1cc(OC)c(OC)c(OC)c1 |  |  |  |  | 359 nM |  | 61800 nM | 697 nM | 665 nM | 351 nM | 265 nM | 
8 | CC[C@@H](C(=O)N1CCCC[C@H]1C(=O)O[C@H](CCc1ccc(OC)c(OC)c1)c1cccc(OCC(=O)O)c1)c1ccc(Cl)cc1 |  |  |  |  | 441 nM |  | 49900 nM | 181 nM | 332 nM | 294 nM | 226 nM | 
9 | COc1ccc(CC[C@@H](OC(=O)[C@@H]2CCCCN2C(=O)C(C)C)c2cccc(OCC(=O)O)c2)cc1OC |  |  |  |  | 1760 nM |  | 12100 nM | 2950 nM | 2700 nM | 1140 nM | 713 nM | 
